Results reported in patent publication US7078380B2, “Antibacterial agents comprising conjugates of glycopeptides and peptidic membrane associating elements” (priority 2000, dated 2006).

Assay: Haemolysis assay
Format: cell-based
Details: sensitised sheep erythrocytes, 1 hour at 37° C., printed μM or uM, read-out: LC50 (concentration of compound required to give 50% lysis)
Description: Lysis of sensitised sheep erythrocytes was measured using a standard haemolytic assay using a v-bottom microtitre plate format as follows:
50 microlitres of a range of concentrations of compound diluted in Hepes buffer were mixed with 100 microlitres of sensitised sheep erythrocytes and then incubated for 1 hour at 37° C. Samples were spun at 1600 rpm at ambient temperature for 3 minutes before transferring 150 microlitres of supernatant to a flat bottom microtitre plate and determining the absorption at 405 or 410 nm. Maximum lysis (Amax) was determined by incubating serum with erythrbcytes in the presence of human serum diluted 1:400 (final concentration in assay mixture) in 0.1 M Hepes/0.15 M NaCl/0.1% gelatin pH 7.4. Background lysis (Ao) was determined by incubating erythrocytes in the absence of any serum or compound, using PBS as a control.

CC[C@H](C)[C@H](NC(=O)CN)C(=O)NCC(=O)N[C@@H](C)C(=O)N[C@H](C(=O)N[C@@H](CC(C)C)C(=O)N[C@@H](CCCCN)C(=O)N[C@H](C(=O)N[C@@H](CC(C)C)C(=O)N[C@H](C(=O)N[C@H](C(=O)NCC(=O)N[C@@H](CC(C)C)C(=O)N1CCC[C@H]1C(=O)N[C@@H](C)C(=O)N[C@@H](CC(C)C)C(=O)N[C@H](C(=O)N[C@@H](CO)C(=O)N[C@@H](Cc1c[nH]c2ccccc12)C(=O)N[C@H](C(=O)N[C@@H](CCCCN)C(=O)N[C@@H](CCCNC(=N)N)C(=O)N[C@@H](CCCCN)C(=O)N[C@@H](CCCNC(=N)N)C(=O)N[C@@H](CCC(N)=O)C(=O)N[C@@H](CCC(N)=O)C(=O)N[C@@H](CSSc1ccccn1)C(N)=O)[C@@H](C)CC)[C@@H](C)CC)[C@@H](C)O)[C@@H](C)O)C(C)C)C(C)C [APT2235] gave an HC50 at 1 hour of 1.2 µM.
